In ChEMBL document CHEMBL2046362, “Synthesis and evaluation of novel potent HCV NS5A inhibitors” (Bioorg Med Chem Lett, 2012) one finds inhibition data, which are given here for one compound.

Chains of the proteins cited; added tags and fusions are not shown.
UniProt P05177, whole entry: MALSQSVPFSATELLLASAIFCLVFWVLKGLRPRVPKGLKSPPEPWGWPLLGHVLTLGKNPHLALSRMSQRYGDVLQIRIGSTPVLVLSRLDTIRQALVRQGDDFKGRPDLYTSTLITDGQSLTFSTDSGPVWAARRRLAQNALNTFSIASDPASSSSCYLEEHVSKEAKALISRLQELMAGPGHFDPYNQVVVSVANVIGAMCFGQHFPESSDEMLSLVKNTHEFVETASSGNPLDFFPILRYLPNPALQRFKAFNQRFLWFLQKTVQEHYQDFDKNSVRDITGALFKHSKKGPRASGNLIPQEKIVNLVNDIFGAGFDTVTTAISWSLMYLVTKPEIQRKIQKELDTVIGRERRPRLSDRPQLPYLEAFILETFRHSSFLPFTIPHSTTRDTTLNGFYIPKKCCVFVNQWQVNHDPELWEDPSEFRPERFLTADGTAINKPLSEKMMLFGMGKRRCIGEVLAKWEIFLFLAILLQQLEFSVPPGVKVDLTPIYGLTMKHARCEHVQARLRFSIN

The structures appear in SMILES notation. Where only a bound is given, the exact number is not on record here.

The target in the data set is CYP1A2 (Homo sapiens, UniProt P05177). Briefly: in vitro.

Take `O=c1cc(-c2ccccc2)oc2c1ccc1ccccc12` [ALPHA-NAPHTHOFLAVONE]: the inhibition at 3 µM was over 93%.
